# Measured affinities in a library of Ab-91 heavy chain variants

Values reported by Engelhart et al. 2022, doi:10.1038/s41597-022-01779-4 (FLAb copy).

The target is the same throughout: PDVDLGDISGINAS, from the HR2 region of SARS-CoV-2 spike.

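The parent was found by panning a naive human phage display library on the peptide. In library AAYL51, one, two or three CDR residues were substituted; doubles and triples were drawn at random. The scFvs were displayed on barcoded MATa yeast, the peptide on MATalpha yeast. After mating in shaken culture at 30 °C for 16 h, diploids were selected and their barcode pairs sequenced. Each replicate has its own calibration line, from reference interactions of the BCL2 family. Each pool was mated in three replicate cultures.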

Each scFv is VL, a 15-residue (Gly4Ser)3 linker, VH, as in the parent Ab-91, and differs from it in the CDRs of the heavy chain only.
VL: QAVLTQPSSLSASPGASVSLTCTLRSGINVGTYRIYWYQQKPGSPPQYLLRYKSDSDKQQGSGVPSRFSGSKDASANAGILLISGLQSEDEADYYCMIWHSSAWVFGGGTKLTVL
VH: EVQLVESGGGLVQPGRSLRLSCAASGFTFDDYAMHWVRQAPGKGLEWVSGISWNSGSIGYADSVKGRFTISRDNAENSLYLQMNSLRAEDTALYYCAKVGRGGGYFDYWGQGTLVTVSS

The parent's heavy chain CDRs are GFTFDDYAMH, GISWNSGSIGYADSVK, VGRGGGYFDY; each variant's own CDRs replace them letter for letter.
All variants listed here change S57 of the VH, counted from its first residue.
Scale: log10 of Kd in nM, estimated from mating counts; low values are strong binders.
Replicates are averaged; those with no signal do not enter the mean.
"ND" means that the variant was in the library but no mating with the target was seen in that replicate; the authors take this as a sign of poor binding, and no number exists.
Nonspecific signal, from three strains lacking the peptide, appeared in 21% of pairings of library AAYL51, centred on 4.54 (5% of these signals below 3.26); values are not corrected for it. The control count says in how many pairings with the empty strains this scFv gave a signal, with their mean in brackets.

CDR-H1	CDR-H2	CDR-H3	log10 Kd (nM) by replicate	mean log10 Kd (nM)	signal with controls
GFTFDDYAMH	GVSWNSGHIGYADSVK	VGRGGGYFDY	3.32 3.74 3.62	3.56	6 of 9 (5.02)
GFVFDDYAMH	GESWNSGKIGYADSVK	VGRGGGYFDY	ND ND ND	ND	1 of 9 (4.65)
GFTFDDYAMH	GISRFSGIIGYADSVK	VGRGGGYFDY	3.68 ND ND	3.68	2 of 9 (4.06)
GFTFDDYAMH	GISWLSGIIGYATSVK	VGRGGGYFDY	6.01 ND 4.98	5.49	3 of 9 (4.04)
GFTFDDYLMH	GISWNSGAIGYADSVK	VGRGGGYFDY	4.31 ND 4.31	4.31	5 of 9 (4.08)
GFTFDDYAIH	GISWVSGYIGYADSVK	VGRGGGYFDY	ND ND ND	ND	1 of 9 (3.89)
GFTFDDYAMH	GISWNTGIIGYRDSVK	VGRGGGYFDY	ND ND ND	ND	1 of 9 (4.78)
GFTFDDYAMH	GISWNLGYIGYADSVK	VGGGGGYFDY	ND ND ND	ND	1 of 9 (3.42)
EFTKDDYAMH	GISWNSGLIGYADSVK	VGRGGGYFDY	6.02 4.39 ND	5.20	0 of 9
GFTFDDYAMH	GISWNSGWIGYADSVK	DGRGGGYFDI	ND ND ND	ND	2 of 9 (4.19)
GFPFDDYAMH	GISWNSCLIGYADSVK	VGRGGGYFDY	ND ND ND	ND	2 of 9 (4.84)
GFTFDDYAMH	GIMWNSGHIGQADSVK	VGRGGGYFDY	ND ND ND	ND	3 of 9 (3.77)
GFTFHDYAMH	GKSWNSGDIGYADSVK	VGRGGGYFDY	ND ND ND	ND	1 of 9 (3.38)
GFTFDDYAMH	GISWNSGQIGYGDSVK	VGRGGGYFGY	3.40 2.59 3.08	3.02	3 of 9 (4.28)
GFTFDDYAMH	GISWNSGVVGYADSVK	VGRGGGPFDY	4.75 ND ND	4.75	2 of 9 (3.74)
GFTFDDYAMH	GISQNSGAIGYADSVK	VGRGGGYFDY	2.91 2.50 2.32	2.58	2 of 9 (3.94)
GFTFDDYAMH	GISWNSGAIGYAISVK	VGRGGGYFDY	3.30 ND ND	3.30	0 of 9
IFTFDDYAMH	GISWNSGCIGYADSVK	VGRGGGYFDY	4.00 4.15 ND	4.07	5 of 9 (4.38)
GFTFDDYAMH	GISWNSGMIGYADSVK	VGRGGGYFDY	1.93 1.65 1.40	1.66	1 of 9 (4.76)
GFTFCDYAMH	GISWNSGNIGYADSVK	VGRGGGYFGY	ND ND ND	ND	2 of 9 (4.44)
GFTFDDYCME	GISWNSGPIGYADSVK	VGRGGGYFDY	ND ND ND	ND	0 of 9
GFTGDDYAMH	GQSWNSGHIGYADSVK	VGRGGGYFDY	ND 3.70 ND	3.70	3 of 9 (4.78)
NFTFDDYAMH	GISWNSGDIGYADSVK	VGRGWGYFDY	3.07 3.05 4.48	3.53	3 of 9 (4.13)
GFTFDDYAMH	GISWMSGLIGYADSVK	VGRGGGYFQY	3.69 ND ND	3.69	2 of 9 (4.62)
GFTFDDFAMH	GISWNSGCIGYADSVK	VGRGGFYFDY	ND 5.53 4.14	4.84	5 of 9 (4.29)
GFTFVDYAAH	GISWNSGPIGYADSVK	VGRGGGYFDY	ND ND ND	ND	1 of 9 (4.91)
GFTFDDYAEH	GISWNSGPIGYADSVK	VGRGRGYFDY	ND ND ND	ND	1 of 9 (2.77)
GFTFDDYAMH	GISRNSGCIGYADSVR	VGRGGGYFDY	3.19 6.19 ND	4.69	4 of 9 (4.05)
GFTFDDYAMH	GISWNSGVIGDADSVK	VGSGGGYFDY	ND ND ND	ND	0 of 9
GFTFDDYAMH	GISWNSGQIGYAYLVK	VGRGGGYFDY	ND ND ND	ND	1 of 9 (3.20)
GFTVDDYNMH	GISWNSGWIGYADSVK	VGRGGGYFDY	ND ND 4.40	4.40	1 of 9 (4.55)
GFTFDDYAMH	GISWNSGNIGYADSVK	VGRGGGIFDY	ND ND ND	ND	4 of 9 (4.06)
GFTFDDYKMH	GISWNSGCIGYADSNK	VGRGGGYFDY	ND ND ND	ND	2 of 9 (3.96)
GFTFDDYACH	GISWNSCYIGYADSVK	VGRGGGYFDY	ND ND ND	ND	1 of 9 (4.12)
GFIFDDYAMH	GISWNSGGIGYADSVK	VGRCGGYFDY	2.62 3.06 2.13	2.60	1 of 9 (3.96)
GITFDDYAMH	GISWNSGNIGYATSVK	VGRGGGYFDY	ND ND ND	ND	4 of 9 (3.96)
GFTFDDGAMH	GISWNSGWIGYADSVC	VGRGGGYFDY	ND ND ND	ND	0 of 9
GFTFDDDAMH	GISWNSGMIGYADRVK	VGRGGGYFDY	ND ND ND	ND	0 of 9

From the list, the first 2 with no signal in any replicate:

CDR-H1	CDR-H2	CDR-H3	log10 Kd (nM) by replicate	mean log10 Kd (nM)	signal with controls
GFVFDDYAMH	GESWNSGKIGYADSVK	VGRGGGYFDY	ND ND ND	ND	1 of 9 (4.65)
GFTFDDYAIH	GISWVSGYIGYADSVK	VGRGGGYFDY	ND ND ND	ND	1 of 9 (3.89)